Tested on: primary cultures of hypothalamic neurons
Test: Fluo-4 Ca2+ mobilization in primary hypothalamic neurons
Format: cell-based, mouse

CCCN1CCC[C@@H]2Cc3n[nH]cc3C[C@H]21 [quinpirole]
Ca2+ response in primary hypothalamic neurons: induces rapid Ca^2+ transients
